The values below are quoted from earlier work in patent publication US20070004010A1, “Engineered Enzymes and Their Use for Synthesis of Thioglycosides” (THE UNIVERSITY OF BRITISH COLUMBIA, priority 2002, published 2007).

Sequences of proteins named here, by UniProt entry; tags and fusion partners are left off.
UniProt P12614, whole entry E171A: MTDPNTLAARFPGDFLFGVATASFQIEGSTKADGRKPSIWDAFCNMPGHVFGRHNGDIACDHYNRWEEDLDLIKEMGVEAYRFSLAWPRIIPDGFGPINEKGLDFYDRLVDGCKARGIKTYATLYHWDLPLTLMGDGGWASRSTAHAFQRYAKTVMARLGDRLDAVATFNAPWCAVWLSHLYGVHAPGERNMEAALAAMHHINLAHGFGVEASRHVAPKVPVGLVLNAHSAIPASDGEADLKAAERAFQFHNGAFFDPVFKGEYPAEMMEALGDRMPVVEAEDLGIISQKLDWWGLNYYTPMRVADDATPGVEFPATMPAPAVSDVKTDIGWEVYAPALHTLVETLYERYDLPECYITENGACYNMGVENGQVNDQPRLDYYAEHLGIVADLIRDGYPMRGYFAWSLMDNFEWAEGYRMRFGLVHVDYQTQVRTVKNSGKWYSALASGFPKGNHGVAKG

As a reminder, the pKa is the negative logarithm of the acid dissociation constant. The Km is the substrate concentration at which the rate is half of its maximum.

The conditions of series [1]: cited from earlier work.
Series [2] concerns the target Abg E171A (Agrobacterium sp., UniProt P12614, E171A). To be noted: read-out: KM value of the donor; shown previously; no donor substrate inhibition; cited from earlier work.

Take `O=[N+]([O-])c1ccc([N+](=O)[O-])c(O)c1`: in series [1], the pKa was 5.15.
In the case of `O=[N+]([O-])c1ccc(O[C@@H]2O[C@H](CO)[C@@H](O)[C@H](O)[C@H]2O)c([N+](=O)[O-])c1`, the Km in series [2] was less than 1 µM.
